Test results as given in patent US10745394B2, “8-azabicyclo[3.2.1]octane compounds as mu opioid receptor antagonists” (priority 2006, dated 2020).

The chains behind the UniProt entries cited, without tags or fusion partners.
UniProt P35372, whole entry: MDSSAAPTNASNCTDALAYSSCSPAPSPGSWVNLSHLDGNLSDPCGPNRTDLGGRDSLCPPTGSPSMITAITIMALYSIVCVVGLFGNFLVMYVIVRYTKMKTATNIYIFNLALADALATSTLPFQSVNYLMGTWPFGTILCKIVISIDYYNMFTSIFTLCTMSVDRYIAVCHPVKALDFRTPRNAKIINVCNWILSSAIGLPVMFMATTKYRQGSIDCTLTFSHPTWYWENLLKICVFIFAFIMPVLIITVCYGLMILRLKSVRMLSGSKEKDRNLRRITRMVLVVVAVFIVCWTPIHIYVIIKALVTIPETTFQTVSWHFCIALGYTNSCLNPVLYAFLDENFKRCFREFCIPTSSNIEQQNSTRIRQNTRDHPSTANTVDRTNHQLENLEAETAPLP

Molecular target: T1, human mu opioid receptor (Homo sapiens, UniProt P35372)
T1 construct: expressed in transfected cells; host or cells: CHO-K1
Experiment: Radioligand binding assay, human mu opioid receptor
Conditions: displacement of [3H]-Diprenorphine

Q: For NC(=O)c1cccc([C@H]2C[C@H]3CC[C@@H](C2)N3CCN(CCc2ccccc2)C(=O)CO)c1 [Example 59, 3-endo-(8-{2-[(2-hydroxyacetyl)phenethylamino]-ethyl}-8-azabicyclo[3.2.1]oct-3-yl)benzamide], which pKi is on record?
A: 9.2
